# Measurements: patent US20250195530A1, “POLQ INHIBITORS” (ASTRAZENECA AB, priority 2022, published 2025)
# Amino acid sequences for entries named in this document (tags omitted). Residues count along the entry.
# UniProt O75417, 1780-2590: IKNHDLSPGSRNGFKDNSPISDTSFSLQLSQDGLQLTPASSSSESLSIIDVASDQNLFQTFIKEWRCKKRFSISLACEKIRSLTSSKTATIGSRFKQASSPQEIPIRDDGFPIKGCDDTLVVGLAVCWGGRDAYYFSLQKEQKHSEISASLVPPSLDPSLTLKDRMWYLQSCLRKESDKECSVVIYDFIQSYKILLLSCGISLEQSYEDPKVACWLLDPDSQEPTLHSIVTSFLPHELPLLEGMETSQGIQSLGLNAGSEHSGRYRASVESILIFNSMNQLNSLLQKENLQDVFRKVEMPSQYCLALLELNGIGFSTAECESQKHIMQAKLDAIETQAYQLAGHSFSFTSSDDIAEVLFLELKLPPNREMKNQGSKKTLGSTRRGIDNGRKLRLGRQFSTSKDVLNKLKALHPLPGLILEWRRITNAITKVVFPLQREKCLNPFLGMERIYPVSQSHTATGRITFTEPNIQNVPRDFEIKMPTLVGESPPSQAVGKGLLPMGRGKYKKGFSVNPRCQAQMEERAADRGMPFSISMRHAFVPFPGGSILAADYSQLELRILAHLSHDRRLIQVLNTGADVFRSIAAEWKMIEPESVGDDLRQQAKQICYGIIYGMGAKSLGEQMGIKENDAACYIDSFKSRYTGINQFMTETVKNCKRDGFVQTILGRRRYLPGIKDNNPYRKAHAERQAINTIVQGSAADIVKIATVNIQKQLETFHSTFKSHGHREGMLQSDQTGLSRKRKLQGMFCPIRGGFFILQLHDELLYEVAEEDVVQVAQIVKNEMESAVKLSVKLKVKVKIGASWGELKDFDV
# Target: isolated polymerase domain (I1780-V2590) of DNA polymerase theta (Polθ) (Homo sapiens (Human), UniProt O75417)
# Assay: biochemical
row,Structure (SMILES),IC50
1,"Cc1ccnc(Cn2c(-c3ccc(C(=O)N[C@@H]4CCOC4)cc3Cl)nc3c(OC4(C)CC4)ncnc32)c1 [Example T316, (R)-3-chloro-4-(6-(1-methylcyclopropoxy)-9-((4-methylpyridin-2-yl)methyl)-9H-purin-8-yl)-N-(tetrahydrofuran-3-yl)benzamide]",12.6 nM
2,"Cc1ccnc(Cn2c(-c3ccc(C(=O)N4CC[C@@](C)(O)C4)cc3Cl)nc3c(OC4(C)CC4)ncnc32)c1 [Example T463, (R)-(3-chloro-4-(6-(1-methylcyclopropoxy)-9-((4-methylpyridin-2-yl)methyl)-9H-purin-8-yl)phenyl)(3-hydroxy-3-methylpyrrolidin-1-yl)methanone]",31.6 nM
3,"COc1ccc(Cl)cc1Cn1c(-c2ccc(OCCC(C)(C)C(=O)O)cc2Cl)nc2c(OC3(C)CC3)ncnc21 [Example U31, 4-(3-chloro-4-(9-(5-chloro-2-methoxybenzyl)-6-(1-methylcyclopropoxy)-9H-purin-8-yl)phenoxy)-2,2-dimethylbutanoic acid]",7.94 nM
4,"Cc1ccnc(Cn2c(-c3ccc(NC(=O)N4CC[C@@H](O)C4)cc3Cl)nc3c(OC4(C)CC4)ncnc32)c1 [Example T342, (R)-N-(3-chloro-4-(6-(1-methylcyclopropoxy)-9-((4-methylpyridin-2-yl)methyl)-9H-purin-8-yl)phenyl)-3-hydroxypyrrolidine-1-carboxamide]",7.94 nM
5,"Cc1nn(C)cc1Cn1c(-c2ccc(CC(N)=O)cc2Cl)nc2c(OC3(C)CC3)ncnc21 [Example T33, 2-(3-chloro-4-(9-((1,3-dimethyl-1H-pyrazol-4-yl)methyl)-6-(1-methylcyclopropoxy)-9H-purin-8-yl)phenyl)acetamide]",501 nM
6,"COc1ccc(Cl)cc1Cn1c(-c2ccc(OCCCC(C)(C)C(=O)O)cc2Cl)nc2c(OC3(C)CC3)ncnc21 [Example U47, 5-(3-chloro-4-(9-(5-chloro-2-methoxybenzyl)-6-(1-methylcyclopropoxy)-9H-purin-8-yl)phenoxy)-2,2-dimethylpentanoic acid]",7.94 nM
7,"Cc1ccnc(Cn2c(-c3ccc(C(=O)N(C)C4COC4)cc3Cl)nc3c(OC4(C)CC4)ncnc32)c1 [Example T320, 3-chloro-N-methyl-4-(6-(1-methylcyclopropoxy)-9-((4-methylpyridin-2-yl)methyl)-9H-purin-8-yl)-N-(oxetan-3-yl)benzamide]",25.1 nM
8,"CC(CCOc1ccc(-c2nc3c(OC4(C)CC4)ncnc3n2Cc2cccc(C(F)(F)F)c2)c(Cl)c1)C(=O)O (single isomer, unassigned) [Example T396, 4-(3-chloro-4-(6-(1-methylcyclopropoxy)-9-(3-(trifluoromethyl)benzyl)-9H-purin-8-yl)phenoxy)-2-methylbutanoic acid]",7.94 nM
9,"Cc1ccnc(Cn2c(-c3ccc(OCC(=O)N4CCC[C@@H]4CO)cc3Cl)nc3c(OC4(C)CC4)ncnc32)c1 [Example T579, (R)-2-(3-chloro-4-(6-(1-methylcyclopropoxy)-9-((4-methylpyridin-2-yl)methyl)-9H-purin-8-yl)phenoxy)-1-(2-(hydroxymethyl)pyrrolidin-1-yl)ethan-1-one]",10 nM
10,"CNC(=O)CNc1ccc(-c2nc3c(OC4(C)CC4)ncnc3n2Cc2cc(C)ccn2)c(Cl)c1 [Example T131, 2-((3-chloro-4-(6-(1-methylcyclopropoxy)-9-((4-methylpyridin-2-yl)methyl)-9H-purin-8-yl)phenyl)amino)-N-methylacetamide]",6.31 nM
11,"Cc1ccnc(Cn2c(-c3ccc(OCCN(C)C)cc3Cl)nc3c(OC4(C#N)CC4)ncnc32)c1 [Example T203, 1-((8-(2-chloro-4-(2-(dimethylamino)ethoxy)phenyl)-9-((4-methylpyridin-2-yl)methyl)-9H-purin-6-yl)oxy)cyclopropane-1-carbonitrile]",6.31 nM
12,"CC1(Oc2ncnc3c2nc(-c2ccc(OCCOCCC(=O)O)cc2Cl)n3Cc2cccc(Cl)c2)CC1 [Example T303, 3-(2-(3-chloro-4-(9-(3-chlorobenzyl)-6-(1-methylcyclopropoxy)-9H-purin-8-yl)phenoxy)ethoxy)propanoic acid]",7.94 nM
13,"COc1ccc(Cl)cc1Cn1c(-c2ccc(OCCOC(C)(C)C(=O)O)cc2Cl)nc2c(OC3(C)CC3)ncnc21 [Example U54, 2-(2-(3-chloro-4-(9-(5-chloro-2-methoxybenzyl)-6-(1-methylcyclopropoxy)-9H-purin-8-yl)phenoxy)ethoxy)-2-methylpropanoic acid]",10 nM
14,"Cc1ccnc(Cn2c(-c3ccc(C(=O)NCC(F)F)cc3Cl)nc3c(OC4(C)CC4)ncnc32)c1 [Example T93, 3-chloro-N-(2,2-difluoroethyl)-4-(6-(1-methylcyclopropoxy)-9-((4-methylpyridin-2-yl)methyl)-9H-purin-8-yl)benzamide]",15.8 nM
15,"C[C@H](Oc1cccc(-c2nc3c(OC4(C)CC4)ncnc3n2Cc2cccc(Cl)c2)c1Cl)C(=O)O [Example T90, (S)-2-(2-chloro-3-(9-(3-chlorobenzyl)-6-(1-methylcyclopropoxy)-9H-purin-8-yl)phenoxy)propanoic acid]",6.31 nM
16,"CC1(Oc2ncnc3c2nc(-c2ccc(OCCN4CCNCC4)cc2Cl)n3Cc2ccnc(Cl)c2)CC1 [Example T378, 8-(2-chloro-4-(2-(piperazin-1-yl)ethoxy)phenyl)-9-((2-chloropyridin-4-yl)methyl)-6-(1-methylcyclopropoxy)-9H-purine]",10 nM

# Further lines, results first:
row,IC50,Structure (SMILES)
1,5.01 nM,"CC(CCOc1ccc(-c2nc3c(OC4(C)CC4)ncnc3n2Cc2cccc(C(F)F)c2)c(Cl)c1)C(=O)O (single isomer, unassigned) [Example T412, 4-(3-chloro-4-(9-(3-(difluoromethyl)benzyl)-6-(1-methylcyclopropoxy)-9H-purin-8-yl)phenoxy)-2-methylbutanoic acid]"
2,6.31 nM,"CC1(Oc2ncnc3c2nc(-c2cccc(OCCOCC(=O)O)c2Cl)n3Cc2cccc(Cl)c2)CC1 [Example T162, 2-(2-(2-chloro-3-(9-(3-chlorobenzyl)-6-(1-methylcyclopropoxy)-9H-purin-8-yl)phenoxy)ethoxy)acetic acid]"
3,6.31 nM,"Cc1ccnc(Cn2c(-c3ccc(OCCN4CCNCC4=O)cc3Cl)nc3c(OC4(C)CC4)ncnc32)c1 [Example T498, 1-(2-(3-chloro-4-(6-(1-methylcyclopropoxy)-9-((4-methylpyridin-2-yl)methyl)-9H-purin-8-yl)phenoxy)ethyl)piperazin-2-one]"
4,6.31 nM,"COc1ccc(Cl)cc1Cn1c(-c2ccc(OCCOCC(=O)O)cc2Cl)nc2c(OC3(C)CC3)ncnc21 [Example U48, 2-(2-(3-chloro-4-(9-(5-chloro-2-methoxybenzyl)-6-(1-methylcyclopropoxy)-9H-purin-8-yl)phenoxy)ethoxy)acetic acid]"
5,3.16 nM,"CC1(Oc2ncnc3c2nc(-c2ccc(OCCN4C[C@H]5CC[C@@H]4CN5)cc2Cl)n3Cc2ccccc2)CC1 (relative stereo) [Example T604, rel-(1R,4R)-2-(2-(4-(9-benzyl-6-(1-methylcyclopropoxy)-9H-purin-8-yl)-3-chlorophenoxy)ethyl)-2,5-diazabicyclo[2.2.2]octane]"
6,3.98 nM,"COc1cccc(Cn2c(-c3ccc(OCCC(C)C(=O)O)cc3Cl)nc3c(OC4(C)CC4)ncnc32)c1 (racemic) [Example T454, 4-(3-chloro-4-(9-(3-methoxybenzyl)-6-(1-methylcyclopropoxy)-9H-purin-8-yl)phenoxy)-2-methylbutanoic acid]"
7,5.01 nM,"Cc1ccnc(Cn2c(-c3ccc(CCN4CCCC4)cc3Cl)nc3c(OC4(C)CC4)ncnc32)c1 [Example T505, 8-(2-chloro-4-(2-(pyrrolidin-1-yl)ethyl)phenyl)-6-(1-methylcyclopropoxy)-9-((4-methylpyridin-2-yl)methyl)-9H-purine]"
8,3.16 nM,"CN(C)CCCOc1ccc(-c2nc3c(OC4(C)CC4)ncnc3n2Cc2cc(Cl)ccn2)c(F)c1 [Example T231, 3-(4-(9-((4-chloropyridin-2-yl)methyl)-6-(1-methylcyclopropoxy)-9H-purin-8-yl)-3-fluorophenoxy)-N,N-dimethylpropan-1-amine]"
9,6.31 nM,"CNC(=O)COc1cccc(-c2nc3c(OC4(C)CC4)ncnc3n2Cc2cc(C)ccn2)c1Cl [Example T120, 2-(2-chloro-3-(6-(1-methylcyclopropoxy)-9-((4-methylpyridin-2-yl)methyl)-9H-purin-8-yl)phenoxy)-N-methylacetamide]"
10,5.01 nM,"Cc1ccnc(Cn2c(-c3ccc(CN4CC[C@@H](O)C4)cc3Cl)nc3c(OC4(C)CC4)ncnc32)c1 [Example T353, (R)-1-(3-chloro-4-(6-(1-methylcyclopropoxy)-9-((4-methylpyridin-2-yl)methyl)-9H-purin-8-yl)benzyl)pyrrolidin-3-ol]"
11,5.01 nM,"Cc1ccnc(Cn2c(-c3ccc(OCC(F)F)cc3Cl)nc3c(OC4(C)CC4)ncnc32)c1 [Example T47, 8-(2-chloro-4-(2,2-difluoroethoxy)phenyl)-6-(1-methylcyclopropoxy)-9-((4-methylpyridin-2-yl)methyl)-9H-purine]"
12,6.31 nM,"CC(CCOc1ccc(-c2nc3c(OC4(C)CC4)ncnc3n2Cc2cccc(Cl)c2)c(Cl)c1)C(=O)O (racemic) [Example T291, 4-(3-chloro-4-(9-(3-chlorobenzyl)-6-(1-methylcyclopropoxy)-9H-purin-8-yl)phenoxy)-2-methylbutanoic acid]"
13,3.16 nM,"CC1(Oc2ncnc3c2nc(-c2ccc(OCCCN4CC[C@@H](O)C4)cc2Cl)n3Cc2cc(Cl)ccn2)CC1 [Example T502, (R)-1-(3-(3-chloro-4-(9-((4-chloropyridin-2-yl)methyl)-6-(1-methylcyclopropoxy)-9H-purin-8-yl)phenoxy)propyl)pyrrolidin-3-ol]"
14,5.01 nM,"Cc1ccnc(Cn2c(-c3ccc(OC4CCc5nccn5C4)cc3Cl)nc3c(OC4(C)CC4)ncnc32)c1 (single isomer, unassigned) [Example T536, 8-(2-chloro-4-((5,6,7,8-tetrahydroimidazo[1,2-a]pyridin-6-yl)oxy)phenyl)-6-(1-methylcyclopropoxy)-9-((4-methylpyridin-2-yl)methyl)-9H-purine]"
